Data: patent US20080050452A1, “METAL-CONTAINING FORMULATIONS AND METHODS OF USE” (priority 2006, published 2008)

Experiment: Compatibility of nanocrystalline silver with excipients
Type: physicochemical
Details: 10% aqueous solution of excipient mixed with nanocrystalline silver in glass vial, 40° C. overnight

## Hexylene glycol
  Reaction with nanocrystalline silver: Grey - no discoloration
